# Results: patent US10278957B2, “Opioid agonist peptides and uses thereof” (Protagonist Therapeutics, Inc., priority 2017, dated 2019)
# Protein sequences, listed by entry. Tags and fused reporters are not part of them.
# UniProt P35372, whole entry: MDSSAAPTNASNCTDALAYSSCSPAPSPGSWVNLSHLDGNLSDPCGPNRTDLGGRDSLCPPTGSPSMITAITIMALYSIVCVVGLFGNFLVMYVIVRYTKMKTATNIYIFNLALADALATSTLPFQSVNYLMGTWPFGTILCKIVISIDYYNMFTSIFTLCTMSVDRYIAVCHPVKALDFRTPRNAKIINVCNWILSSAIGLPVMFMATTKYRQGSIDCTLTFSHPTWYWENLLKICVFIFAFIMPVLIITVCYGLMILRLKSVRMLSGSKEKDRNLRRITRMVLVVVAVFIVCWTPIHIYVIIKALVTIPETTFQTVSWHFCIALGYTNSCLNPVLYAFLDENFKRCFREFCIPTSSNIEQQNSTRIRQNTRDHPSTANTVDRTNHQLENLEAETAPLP
# How the values were obtained:
# μ-opioid receptor (MOR) = μ-opioid receptor (MOR) (Homo sapiens, UniProt P35372); assay: MOR agonist cAMP assay (HitHunter cAMP, forskolin-stimulated); assay type: cell-based; settings: read-out: MOR EC50; MOR cAMP agonist activity
# δ-opioid receptor (DOR) = δ-opioid receptor (DOR) (Homo sapiens, UniProt P41143); assay: DOR agonist cAMP assay (HitHunter cAMP, forskolin-stimulated); settings: read-out: DOR EC50; DOR cAMP agonist activity
compound,measurement,setting,value
C[C@@H](NC(=O)[C@@H]1Cc2ccc(O)cc2CN1)C(=O)NCC(=O)N[C@H](CC(=O)N(C)CC(N)=O)Cc1ccccc1,pEC50,μ-opioid receptor (MOR),< 6.70
same,pEC50,δ-opioid receptor (DOR),7.30 to 8.00

# pEC50: −log10 of the molar value.
